In US12528818B2, “Compositions and methods for inhibition of RAS” (Leidos Biomedical Research, Inc., priority 2021, dated 2026):

Legend:
[1] = target: Avi-KRAS G12C (1-169) GppNHp/RAF1 RBD-3xFLAG (52-151) (Homo sapiens, UniProt P01116, G12C); assay: biochemical; settings: Raf1-GppNHp-KRAS G12C disruption, Raf1 RBD-KRAS G12C-GppNHp disruption assay IC50
[2] = target: GDP-loaded KRAS4b (amino acids 1-169) G12C/C118S protein (Homo sapiens, UniProt P01116, C118S/G12C); assay: Covalent cysteine 12 modification by MALDI-TOF MS, GDP-loaded KRAS G12C; assay type: biochemical; settings: 15 minutes reaction time
[3] = target: GppNHp-loaded KRAS4b (amino acids 1-169) G12C/C118S protein (Homo sapiens, UniProt P01116, C118S/G12C); assay: Covalent cysteine 12 modification by MALDI-TOF MS, GppNHp-loaded KRAS G12C; assay type: biochemical; settings: 15 minutes reaction time
[4] = compound 95 or later using 1 μM proteins
[5] = compounds 94 or before using 5 μM proteins

| SMILES | IC50 [1] [µM] | GDP-KRAS G12C percent of modification [2, 4] | GppNHp-KRAS G12C percent of modification [3, 4] | GDP-KRAS G12C percent of modification [2, 5] | GppNHp-KRAS G12C percent of modification [3, 5] |
| --- | --- | --- | --- | --- | --- |
| C=CC(=O)N1CC(N(c2nc(OC[C@]34CCCN3C[C@H](F)C4)nc3c(F)c(-c4ccc(F)c5sc(N)nc45)c(C(F)(F)F)cc23)C2CC2)C1 [Compound 178, 1-(3-((7-(2-amino-7-fluorobenzo[d]thiazol-4-yl)-8-fluoro-2-(((2R,7aR)-2-fluorotetrahydro-1H-pyrrolizin-7a(5H)-yl)methoxy)-6-(trifluoromethyl)quinazolin-4-yl)(cyclopropyl)amino)azetidin-1-yl)prop-2-en-1-one] | 0.5 to 5 | C (10%≤percent of modification <50%) | D (percent of modification <10%) |  |  |
| C=CC(=O)N1CC(Nc2nc(OC[C@@H]3C[C@@H](F)CN3C)nc3c(F)c(-c4ccc(F)c5sc(N)nc45)c(-c4ccoc4)cc23)C1 [Compound 95] | < 0.5 | A (percent of modification ≥70%) | A (percent of modification ≥70%) |  |  |
| C=CC(=O)N1C[C@H](C)N(c2nc(OC[C@@]34CCCN3C[C@@H](F)C4)nc3c(F)c(-c4ccc(F)c5sc(N)nc45)c(C(F)(F)F)cc23)C[C@H]1C [Compound 219] | < 0.5 | A (percent of modification ≥70%) | C (10%≤percent of modification <50%) |  |  |
| C=CC(=O)N1CC[C@@H](N(C)c2nc(OC[C@@H]3CCCN3C)nc3c(F)c(-c4ccc(F)c5sc(N)nc45)c(C(F)(F)F)cc23)C1 [Compound 230] | < 0.5 | C (10%≤percent of modification <50%) | C (10%≤percent of modification <50%) |  |  |
| C=CC(=O)N1CC[C@@H](N(C)c2nc(OCC34CCCN3CCC4)nc3c(F)c(-c4c(O)cccc4F)c(C(F)(F)F)cc23)C1 [Compound 227] | 0.5 to 5 | A (percent of modification ≥70%) | C (10%≤percent of modification <50%) |  |  |
| C=CC(=O)N1CCN(c2nc(C3CCN(C)CC3)nc3c(F)c(-c4ccc(F)c5sc(N)nc45)c(Cl)cc23)CC1 [Compound 59, 1-(4-(7-(2-amino-7-fluorobenzo[d]thiazol-4-yl)-6-chloro-8-fluoro-2-(1-methylpiperidin-4-yl)quinazolin-4-yl)piperazin-1-yl)prop-2-en-1-one] | > 20 |  |  | A (percent of modification ≥70%) | D (percent of modification <10%) |
| CC#CC(=O)N1CCN(c2nc(OCC34CCCN3CC(C)(C)C4)nc3c(F)c(-c4ccc(F)c5sc(N)nc45)c(C(F)(F)F)cc23)CC1 (stereo not drawn) [Compound 170] | 5 to 20 | B (50≤percent of modification <70%) | D (percent of modification <10%) |  |  |
| C=CC(=O)N1CC[C@@H](Nc2nc(OC[C@@]34CCCN3C[C@H](F)C4)nc3c(F)c(-c4ccc(F)c5sc(N)nc45)c(C(F)(F)F)cc23)C1 (single isomer, unassigned) [Compound 271] | < 0.5 | A (percent of modification ≥70%) | A (percent of modification ≥70%) |  |  |
| C=CC(=O)N1CC[C@@H](N(C)c2nc(OC[C@@]34CCCN3C[C@H](F)C4)nc3c(F)c(-c4ccc(F)c5sc(N)nc45)c(C(F)(F)F)cc23)C1 (single isomer, unassigned) [Compound 240] | 0.5 to 5 | D (percent of modification <10%) | D (percent of modification <10%) |  |  |
| C=CC(=O)N1CC(Nc2ncnc3c(F)c(-c4ccc(F)c5sc(N)nc45)c(C(F)(F)F)cc23)C1 [Compound 86] | 0.5 to 5 |  |  | A (percent of modification ≥70%) | C (10%≤percent of modification <50%) |
| C=CC(=O)NC1CN(c2nc(OC[C@@H]3CCCN3C)nc3c(F)c(-c4ccc(F)c5sc(N)nc45)c(Cl)cc23)C1 [Compound 74] | 5 to 20 |  |  | A (percent of modification ≥70%) | C (10%≤percent of modification <50%) |
| C=CC(=O)N1CCN(c2nc(OC[C@@H]3CCCN3C)nc3c(F)c(-c4ccc(F)c5sc(N)nc45)c(C(F)(F)F)cc23)CC1 [Compound 71, 1-(4-(7-(2-amino-7-fluorobenzo[d]thiazol-4-yl)-8-fluoro-2-(((S)-1-methylpyrrolidin-2-yl)methoxy)-6-(trifluoromethyl)quinazolin-4-yl)piperazin-1-yl)prop-2-en-1-one] | 0.5 to 5 |  |  | A (percent of modification ≥70%) | C (10%≤percent of modification <50%) |
| C=CC(=O)N1CC[C@@H](N(CC)c2ncnc3c(F)c(-c4ccc(F)c5sc(N)nc45)c(C(F)(F)F)cc23)C1 [Compound 248] | 0.5 to 5 | A (percent of modification ≥70%) | D (percent of modification <10%) |  |  |
| C=CC(=O)N1C[C@H](C)N(c2nc(OCC3(CN4CC[C@@H](F)C4)CC3)nc3c(F)c(-c4ccc(F)c5sc(N)nc45)c(C(F)(F)F)cc23)C[C@H]1C [Compound 286] | < 0.5 | B (50≤percent of modification <70%) | D (percent of modification <10%) |  |  |

Second part, the molecule after the results:

| IC50 [1] [µM] | GDP-KRAS G12C percent of modification [2, 4] | GppNHp-KRAS G12C percent of modification [3, 4] | GDP-KRAS G12C percent of modification [2, 5] | GppNHp-KRAS G12C percent of modification [3, 5] | SMILES |
| --- | --- | --- | --- | --- | --- |
| < 0.5 |  |  | B (50≤percent of modification <70%) | B (50≤percent of modification <70%) | CN1CCC[C@H]1COc1nc(NC2CCN(C#N)C2)c2cc(Cl)c(-c3ccc(F)c4sc(N)nc34)c(F)c2n1 (stereo partly drawn) [Compound 51] |
| 0.5 to 5 | D (percent of modification <10%) | D (percent of modification <10%) |  |  | C=CC(=O)N1CC[C@@H](N(c2nc(OC[C@@]34CCCN3C[C@H](F)C4)nc3c(F)c(-c4ccc(F)c5sc(N)nc45)c(C(F)(F)F)cc23)C2CC2)C1 (single isomer, unassigned) [Compound 237] |
| > 20 | A (percent of modification ≥70%) | D (percent of modification <10%) |  |  | C=CC(=O)N1CCN(c2nc(OC[C@@H]3CCCN3C)nc3c(F)c(-c4ccc(F)c5sc(N)nc45)c(CC#N)cc23)CC1 [Compound 144] |
| 0.5 to 5 | A (percent of modification ≥70%) | C (10%≤percent of modification <50%) |  |  | C=CC(=O)N1CCN(c2nc(OCC34CCCN3CC(C)(C)C4)nc3c(F)c(-c4ccc(F)c5sc(N)nc45)c(C(F)(F)F)cc23)CC1 (stereo not drawn) [Compound 171, 1-(4-(7-(2-amino-7-fluorobenzo[d]thiazol-4-yl)-2-((2,2-dimethyltetrahydro-1H-pyrrolizin-7a(5H)-yl)methoxy)-8-fluoro-6-(trifluoromethyl)quinazolin-4-yl)piperazin-1-yl)prop-2-en-1-one] |
| > 20 | B (50≤percent of modification <70%) | D (percent of modification <10%) |  |  | C=C(F)C(=O)N1CCN(c2nc(OC[C@]34CCCN3C[C@H](F)C4)nc3c(F)c(-c4ccc(F)c5sc(N)nc45)c(C(F)(F)F)cc23)[C@H](C)C1 [Compound 199] |
| 0.5 to 5 | A (percent of modification ≥70%) | C (10%≤percent of modification <50%) |  |  | C=CC(=O)N(C)C1CN(c2nc(OCC34CCCN3CCC4)nc3c(F)c(-c4ccc(F)c5sc(N)nc45)c(Cl)cc23)C1 [Compound 167] |
| 5 to 20 |  |  | A (percent of modification ≥70%) | D (percent of modification <10%) | C=CC(=O)N1CC(Nc2ncnc3c(F)c(-c4ccc(F)c5sc(N)nc45)c(Cl)cc23)C1 [Compound 4, 1-(3-((7-(2-amino-7-fluorobenzo[d]thiazol-4-yl)-6-chloro-8-fluoroquinazolin-4-yl)amino)azetidin-1-yl)prop-2-en-1-one] |
| < 0.5 | A (percent of modification ≥70%) | C (10%≤percent of modification <50%) |  |  | C=CC(=O)N1C[C@H](C)N(c2nc(OC[C@@]34CCCN3C[C@H](F)C4)nc3c(F)c(-c4ccc(F)c5sc(N)nc45)c(OC(F)(F)F)cc23)C[C@H]1C [Compound 235, 1-((2R,5S)-4-(7-(2-amino-7-fluorobenzo[d]thiazol-4-yl)-8-fluoro-2-(((2R,7aS)-2-fluorotetrahydro-1H-pyrrolizin-7a(5H)-yl)methoxy)-6-(trifluoromethoxy)quinazolin-4-yl)-2,5-dimethylpiperazin-1-yl)prop-2-en-1-one] |
| < 0.5 | A (percent of modification ≥70%) | C (10%≤percent of modification <50%) |  |  | C=CC(=O)N1CCN(c2nc(OCC34CCCN3CCC4)nc3c(F)c(-c4ccc(F)c5sc(N)nc45)c(OC(F)F)cc23)CC1 [Compound 254] |
| 0.5 to 5 | D (percent of modification <10%) | D (percent of modification <10%) |  |  | C=CC(=O)N1CCN(c2nc(OC[C@@]34CCCN3C[C@@H](F)C4)nc3c(F)c(-c4ccc(F)c5sc(N)nc45)c(C(F)(F)F)cc23)C[C@H]1C [Compound 220] |
| < 0.5 | A (percent of modification ≥70%) | A (percent of modification ≥70%) |  |  | C=CC(=O)N1CC(Nc2nc(OC[C@@]34CCCN3C[C@H](F)C4)nc3c(F)c(-c4ccc(F)c5sc(N)nc45)c(C(F)(F)F)cc23)C1 [Compound 270] |
